{
  "sequences": {"note": "Sequences of proteins named here, by UniProt entry; tags and fusion partners are left off. Residues count along the entry.", "UniProt P28335, 33-458": "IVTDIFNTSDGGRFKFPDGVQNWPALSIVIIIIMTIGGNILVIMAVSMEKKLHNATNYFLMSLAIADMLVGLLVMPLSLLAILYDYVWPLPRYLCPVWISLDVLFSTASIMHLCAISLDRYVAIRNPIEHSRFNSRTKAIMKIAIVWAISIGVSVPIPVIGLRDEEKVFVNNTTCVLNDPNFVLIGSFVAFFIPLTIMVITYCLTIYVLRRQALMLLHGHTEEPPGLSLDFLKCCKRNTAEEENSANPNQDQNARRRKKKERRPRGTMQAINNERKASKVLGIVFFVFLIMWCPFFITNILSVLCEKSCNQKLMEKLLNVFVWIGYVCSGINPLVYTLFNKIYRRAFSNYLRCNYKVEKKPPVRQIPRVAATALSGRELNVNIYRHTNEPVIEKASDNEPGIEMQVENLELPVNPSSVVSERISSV"},
  "source": "patent US7435837B2",
  "about": "“Dihydrobenzofuranyl alkanamine derivatives and methods for using same” (Wyeth, priority 2003, dated 2008);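 as to EC50: Fluo-3-AM fluorescence read on FLIPR every 1 s, agonist added after 10 baseline reads, response taken as peak minus lowest raw fluorescence count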",
  "key": {"[1]": {"target": "T1, human 5-hydroxytryptamine-2C (h5-HT2C) receptor (Homo sapiens, UniProt P28335)", "T1 construct": "expressed in transfected cells; host or cells: CHO (Chinese Hamster Ovary) cells; membranes", "assay": "[125I]DOI binding to membranes of CHO cells expressing the human 5-HT2C receptor", "settings": "reference compounds; 95% confidence interval in parentheses; [125I]DOI radioligand"}, "[2]": {"target": "human 5-HT2C receptor (Homo sapiens, UniProt P28335)", "settings": "reference compounds; calcium mobilization"}},
  "data": [
    {"smiles": "Clc1cccc(N2CCNCC2)c1", "note": "[mCPP, meta-chlorophenylpiperazine, reference compound]", "values": [
      {"measurement": "Ki", "setting": "[1]", "result": 6.5, "unit": "nM"},
      {"measurement": "EC50", "setting": "[2]", "result": 5.4, "unit": "nM"}
    ]}
  ]
}
